According to article PMC2263054, “Functional evolution of the vitamin D and pregnane X receptors” (BMC Evolutionary Biology, 2007):

Tests used:
Xenopus laevis VDR = target: T1, Xenopus laevis VDR (Xenopus laevis, UniProt O13124); assay: luciferase reporter transactivation assay in HepG2-NTCP cells, GAL4/xlVDR LBD chimera with tk-UAS-Luc; format: cell-based; conditions: relative to maximal reference compound (1 μM calcitriol, efficacy = 1.0)
T1 sequence (O13124 90-422): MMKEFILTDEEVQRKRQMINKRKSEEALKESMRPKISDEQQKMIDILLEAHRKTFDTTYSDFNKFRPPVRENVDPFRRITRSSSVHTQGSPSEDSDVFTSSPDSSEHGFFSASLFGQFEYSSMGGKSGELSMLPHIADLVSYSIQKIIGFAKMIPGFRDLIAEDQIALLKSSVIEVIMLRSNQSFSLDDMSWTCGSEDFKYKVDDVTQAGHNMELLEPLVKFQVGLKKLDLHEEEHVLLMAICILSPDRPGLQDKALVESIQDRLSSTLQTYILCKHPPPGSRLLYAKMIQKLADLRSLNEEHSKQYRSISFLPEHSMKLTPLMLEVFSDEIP

Zebrafish VDR = target: T2, Zebrafish VDR (Danio rerio, UniProt Q9PTN2); assay: luciferase reporter transactivation assay in HepG2-NTCP cells, GAL4/zfVDR LBD chimera with tk-UAS-Luc; format: cell-based; conditions: relative to maximal reference compound (1 μM calcitriol, efficacy = 1.0)
T2 sequence (Q9PTN2 121-453): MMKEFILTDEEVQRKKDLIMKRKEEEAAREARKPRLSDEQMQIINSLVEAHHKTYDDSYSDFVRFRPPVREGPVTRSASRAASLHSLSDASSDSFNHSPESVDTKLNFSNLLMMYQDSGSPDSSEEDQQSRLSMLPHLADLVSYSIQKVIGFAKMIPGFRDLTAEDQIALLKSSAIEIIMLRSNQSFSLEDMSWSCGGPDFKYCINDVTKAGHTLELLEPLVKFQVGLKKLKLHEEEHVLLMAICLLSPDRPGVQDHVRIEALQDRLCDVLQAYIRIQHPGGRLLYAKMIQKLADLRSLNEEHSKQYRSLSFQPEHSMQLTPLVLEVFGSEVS

Sea lamprey VDR [1] = target: T3, Sea lamprey VDR (Petromyzon marinus, UniProt Q7ZZY9); conditions: relative to maximal reference compound (0.5 μM calcitriol, efficacy = 1.0)
T3 sequence (Q7ZZY9 92-406): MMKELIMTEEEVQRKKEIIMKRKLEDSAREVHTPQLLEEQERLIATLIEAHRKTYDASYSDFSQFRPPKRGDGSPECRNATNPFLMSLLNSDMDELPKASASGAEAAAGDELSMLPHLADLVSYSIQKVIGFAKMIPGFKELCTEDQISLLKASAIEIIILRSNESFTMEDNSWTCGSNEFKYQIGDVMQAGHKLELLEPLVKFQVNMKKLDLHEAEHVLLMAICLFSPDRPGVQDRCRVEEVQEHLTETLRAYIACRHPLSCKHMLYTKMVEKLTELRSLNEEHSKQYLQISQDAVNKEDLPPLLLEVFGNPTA

Ciona VDR/PXR = conditions: HepG2-NTCP cells, luciferase reporter; unit not given; also cells saying No effect
Sea lamprey VDR [2] = target: T3, Sea lamprey VDR; assay: cell-based
Human VDR = target: T4, Human VDR (Homo sapiens, UniProt P11473); assay: luciferase reporter transactivation assay in HepG2-NTCP cells, full-length hVDR with CYP3A4-PXRE-Luc; conditions: relative to maximal reference compound (1 μM calcitriol, efficacy = 1.0)
T4 sequence (P11473 1-427): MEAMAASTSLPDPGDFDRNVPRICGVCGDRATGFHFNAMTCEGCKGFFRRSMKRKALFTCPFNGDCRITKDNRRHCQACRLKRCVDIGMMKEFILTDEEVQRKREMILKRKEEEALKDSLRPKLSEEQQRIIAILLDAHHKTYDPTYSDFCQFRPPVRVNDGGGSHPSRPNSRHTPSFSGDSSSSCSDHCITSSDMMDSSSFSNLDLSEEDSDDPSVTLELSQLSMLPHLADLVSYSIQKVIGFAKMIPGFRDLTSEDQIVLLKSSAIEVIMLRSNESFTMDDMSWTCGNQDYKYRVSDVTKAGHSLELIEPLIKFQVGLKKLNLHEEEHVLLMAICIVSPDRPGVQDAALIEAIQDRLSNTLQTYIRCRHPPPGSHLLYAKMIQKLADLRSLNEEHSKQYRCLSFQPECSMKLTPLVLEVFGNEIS

Mouse VDR = target: T5, Mouse VDR (Mus musculus, UniProt P48281); assay: luciferase reporter transactivation assay in HepG2-NTCP cells, full-length mVDR with CYP3A4-PXRE-Luc; conditions: relative to maximal reference compound (0.5 μM calcitriol, efficacy = 1.0)
T5 sequence (P48281 1-422): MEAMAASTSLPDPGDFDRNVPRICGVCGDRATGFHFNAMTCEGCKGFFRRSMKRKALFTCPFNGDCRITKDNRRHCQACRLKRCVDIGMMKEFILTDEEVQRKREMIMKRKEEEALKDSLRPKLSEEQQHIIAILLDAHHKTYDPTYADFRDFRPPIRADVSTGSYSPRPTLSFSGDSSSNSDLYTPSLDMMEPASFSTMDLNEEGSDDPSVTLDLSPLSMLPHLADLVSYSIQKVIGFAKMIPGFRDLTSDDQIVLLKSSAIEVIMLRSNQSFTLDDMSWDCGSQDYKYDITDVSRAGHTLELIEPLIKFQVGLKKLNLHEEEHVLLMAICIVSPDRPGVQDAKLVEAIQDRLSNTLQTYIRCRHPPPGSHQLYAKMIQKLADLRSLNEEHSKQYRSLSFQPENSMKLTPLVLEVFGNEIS

Structure (SMILES): C=C1/C(=C\C=C2/CCC[C@]3(C)[C@@H]([C@H](C)/C=C/[C@H](C)C(C)C)CC[C@@H]23)C[C@@H](O)C[C@@H]1O
- Xenopus VDR relative efficacy (Xenopus laevis VDR): 0.58
- Zebrafish VDR relative efficacy (Zebrafish VDR): 0.78
- Sea lamprey VDR relative efficacy (Sea lamprey VDR [1]): 0.88
- Ciona VDR/PXR EC50 ± SD (Ciona VDR/PXR): No effect
- EC50 (Sea lamprey VDR [2]): 41 ± 3.6 nM
- Human VDR relative efficacy (Human VDR): 0.88
- Mouse VDR relative efficacy (Mouse VDR): 0.98
